Measured values: paper PMC8418994 (Structure (London, England : 1993), 2021)

The chains behind the UniProt entries cited, without tags or fusion partners. Residues count along the entry.
UniProt P37231, 231-505: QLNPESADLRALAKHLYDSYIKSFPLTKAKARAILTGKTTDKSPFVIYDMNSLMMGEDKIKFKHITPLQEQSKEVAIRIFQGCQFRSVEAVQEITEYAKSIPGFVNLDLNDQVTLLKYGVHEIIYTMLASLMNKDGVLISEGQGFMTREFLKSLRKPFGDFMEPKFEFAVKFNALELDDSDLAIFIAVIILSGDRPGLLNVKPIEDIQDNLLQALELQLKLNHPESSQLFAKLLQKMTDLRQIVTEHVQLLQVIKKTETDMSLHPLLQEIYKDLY

Tests used:
PPARγ LBD [1] = molecular target: T1, PPARγ LBD (Homo sapiens, UniProt P37231); experiment: Surface plasmon resonance; format: binding; conditions: two-step kinetic model fit
PPARγ LBD [2] = molecular target: T1, PPARγ LBD; experiment: Temperature-dependent isothermal titration calorimetry; format: binding; conditions: ITC at 10, 18, 25, 30, 37°C; linear ΔH vs. temperature; wild-type PPARγ LBD

## CN(CCOc1ccc(C[C@H](Nc2ccccc2C(=O)c2ccccc2)C(=O)O)cc1)c1ccccn1 [GW1929]
PPARγ LBD [1]; conformational change step
  Ka2 association rate: slow
PPARγ LBD [1]; initial binding step
  Ka1 association rate: fast
PPARγ LBD [2]
  heat capacity (ΔCp) of binding: −0.55 kcal mol^−1 K^−1
